Columns and labels:
[1] = 10 mg/kg oral, mice; FIG. 5
Caco-2 monolayer = Caco-2 monolayer transport apical to basolateral, second study; details: 1, 5, 10 and 25 μM, 120 minutes at 37° C., FIG. 10

Which results are given for CCc1c2c(nc3ccc(O)cc13)-c1cc3c(c(=O)n1C2)COC(=O)[C@]3(O)CC [SN-38, 7-ethyl-10-hydroxy-camptothecin]?
delivery of SN-38 to plasma [1]: did not appear to be delivered to the plasma; flux / permeability of SN-38 across the monolayer as a function of concentration (Caco-2 monolayer): approximately the same and did not increase with an increase in concentration

Reference: patent US20090258071A1, “COMPOSITIONS AND METHODS FOR PH TARGETED DRUG DELIVERY” (Labopharm, Inc., priority 2006, published 2009)
